In PubChem BioAssay AID2528 (National Center for Advancing Translational Sciences (NCATS), 2010):
Only a part is listed here, and it is no random draw. Active and inactive are the calls of the source. The call rests on the fitted dose curve; in most records, active means well fitted inhibition curve with a large enough effect; inconclusive means small, poorly fitted or top-dose-only effect; inactive means flat fitted curve, though single readings scatter.

By UniProt entry, the sequences of proteins in these tests, tags left out.
UniProt P54132, whole entry: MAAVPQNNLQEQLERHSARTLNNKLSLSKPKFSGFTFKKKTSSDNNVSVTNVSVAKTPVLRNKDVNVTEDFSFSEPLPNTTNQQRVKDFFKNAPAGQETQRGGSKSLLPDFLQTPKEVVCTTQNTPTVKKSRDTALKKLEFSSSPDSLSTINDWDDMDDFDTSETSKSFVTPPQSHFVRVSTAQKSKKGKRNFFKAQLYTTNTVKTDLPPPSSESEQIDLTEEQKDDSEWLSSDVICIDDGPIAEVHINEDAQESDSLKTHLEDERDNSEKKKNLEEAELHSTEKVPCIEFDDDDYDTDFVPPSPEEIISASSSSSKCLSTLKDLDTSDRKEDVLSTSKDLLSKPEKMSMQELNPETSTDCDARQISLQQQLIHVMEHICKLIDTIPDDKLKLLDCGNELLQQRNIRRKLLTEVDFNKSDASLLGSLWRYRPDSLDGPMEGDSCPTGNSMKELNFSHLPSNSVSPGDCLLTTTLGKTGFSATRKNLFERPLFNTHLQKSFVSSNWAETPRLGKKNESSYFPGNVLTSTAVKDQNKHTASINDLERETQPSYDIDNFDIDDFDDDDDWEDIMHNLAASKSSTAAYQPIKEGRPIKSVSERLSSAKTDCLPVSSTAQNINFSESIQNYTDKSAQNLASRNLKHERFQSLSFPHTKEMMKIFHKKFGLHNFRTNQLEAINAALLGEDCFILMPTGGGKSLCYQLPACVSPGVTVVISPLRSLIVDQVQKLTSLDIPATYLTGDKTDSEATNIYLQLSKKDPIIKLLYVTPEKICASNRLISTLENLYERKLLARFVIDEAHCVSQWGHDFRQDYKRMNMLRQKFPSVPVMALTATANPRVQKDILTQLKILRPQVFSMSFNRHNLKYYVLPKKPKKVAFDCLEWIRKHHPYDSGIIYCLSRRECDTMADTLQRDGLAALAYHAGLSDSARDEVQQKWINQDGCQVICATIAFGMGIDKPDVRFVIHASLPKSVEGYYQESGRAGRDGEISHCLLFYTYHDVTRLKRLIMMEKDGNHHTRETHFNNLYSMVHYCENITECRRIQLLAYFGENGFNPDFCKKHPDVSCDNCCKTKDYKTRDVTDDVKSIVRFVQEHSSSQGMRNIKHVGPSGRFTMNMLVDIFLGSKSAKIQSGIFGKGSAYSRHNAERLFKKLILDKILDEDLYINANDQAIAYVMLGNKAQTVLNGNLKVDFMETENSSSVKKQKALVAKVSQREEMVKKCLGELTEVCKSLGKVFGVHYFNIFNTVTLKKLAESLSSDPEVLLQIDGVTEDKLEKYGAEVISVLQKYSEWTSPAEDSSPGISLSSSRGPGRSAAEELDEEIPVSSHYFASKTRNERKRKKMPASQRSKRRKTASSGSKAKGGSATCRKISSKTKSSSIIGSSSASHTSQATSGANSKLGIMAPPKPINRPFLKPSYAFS

Molecular target: RecQ-like DNA helicase BLM (Homo sapiens) (UniProt P54132)
Test: qHTS Assay for Inhibitors of Bloom's syndrome helicase (BLM);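 further: plate controls were vehicle for no effect and no enzyme for full effect; nearly all actives have a fitted effect of over 35% in size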
Conditions: recombinant BLM DNA unwinding, fluorescence dequenching; at 56.1 µM (top of the series) unless noted

SMILES | activity change, negative = inhibition
Cc1cc(C)cc(OP(C)(=O)Nc2ccc(C)cc2C)c1 (stereo not given) | inactive: -0.756%
CC1=NCCc2c1[nH]c1ccccc21.O=[N+]([O-])c1cc([N+](=O)[O-])c(O)c([N+](=O)[O-])c1 | inactive: 4.08%
O=[N+]([O-])OCC(CO[N+](=O)[O-])(CO[N+](=O)[O-])CO[N+](=O)[O-] | inactive: 7.52%
O=[N+]([O-])c1cccc([N+](=O)[O-])c1 | inactive: 2.12%
Cc1ccc(NP(C)(=O)Oc2ccccc2)c(C)c1 (stereo not given) | inactive: 2.13%
COc1ccccc1OP(C)(=O)Nc1ccc(C)cc1 (stereo not given) | inactive: -0.744%
CCOC(=O)c1ccc(NP(C)(=O)Oc2ccccc2)cc1 (stereo not given) | inactive: 4.11%
Cc1cc(C)cc(OP(C)(N)=O)c1 (stereo not given) | inactive: -5.62%
COc1ccc(OP(C)(=O)Nc2cccc(F)c2)cc1 (stereo not given) | inactive: -1.86%
COc1ccccc1OP(C)(=O)Nc1cc(Cl)ccc1C (stereo not given) | inactive: -3.78%
O=C(O)C1(O)c2ccccc2-c2ccccc21 | inactive: -12.2%
O=[N+]([O-])c1ccc2c(c1)C=Nc1ccccc1O2 | inactive: -5.35%
O=C(O)C(O)(c1ccccc1)c1ccccc1 | inactive: 5.7%
Cc1cccc(C)c1OP(C)(N)=O (stereo not given) | inactive: -4.29%
CC(C)(C)c1ccc(OP(C)(=O)Nc2ccc(SC(F)(F)F)cc2)cc1 (stereo not given) | inactive: -13.1%
O=[N+]([O-])[O-].[NH4+] | inactive: -5.2%
CCN(CC)CCCOC(=O)C(O)(c1ccccc1)c1ccccc1 | inactive: 0.0177%
CN(C)CCS | inactive: 2.56%
CCOC(=O)c1ccc(NP(C)(=O)Oc2ccc(OC)cc2)cc1 (stereo not given) | inactive: 1.66%
CCOP(C)(=S)SCC(=O)NC(C)C(=O)O (stereo not given) | inactive: 0.0093%
CP(=O)(Nc1ccccn1)Oc1ccc(Cl)cc1 (stereo not given) | inactive: 0.544%
CP(=O)(Oc1ccccc1)OC(c1ccccc1)C(F)(F)F (stereo not given) | inactive: -2.3%
Cc1cccc(C)c1OP(C)(=O)Nc1ccc(SC(F)(F)F)cc1 (stereo not given) | inactive: -5.48%
CP(=O)(Nc1ccc(SC(F)(F)F)cc1)Oc1ccc(Cl)cc1 (stereo not given) | inactive: -10.2%
Cc1cc(C)cc(OP(C)(=O)Nc2ccc(SC(F)(F)F)cc2)c1 (stereo not given) | inactive: -13.4%
CCc1ccc(OP(C)(=O)N2CCN(c3ccc([N+](=O)[O-])cc3)CC2)cc1 (stereo not given) | inactive: -5.19%
CP(=O)(NC(=O)Nc1ccccc1)Oc1ccccc1 (stereo not given) | inactive: -2.17%
CP(=S)(Nn1cnnc1)Oc1ccccc1 (stereo not given) | inactive: -1.99%
CP(=O)(Nc1ccccc1Br)Oc1ccccc1 (stereo not given) | inactive: 1.9%
COc1ccccc1OP(C)(=O)Nc1ccccc1 (stereo not given) | inactive: -0.947%
